Test results reported in patent US20250368666A1, “INDAZOLE COMPOUNDS” (TYRA BIOSCIENCES, INC., priority 2022, published 2025).

By UniProt entry, the sequences of proteins in these tests, tags left out. Where a name states a change or a piece, a line headed by the entry shows the natural chain unless it says otherwise. Residues count along the entry.
UniProt P11362, 22-822 limits assumed: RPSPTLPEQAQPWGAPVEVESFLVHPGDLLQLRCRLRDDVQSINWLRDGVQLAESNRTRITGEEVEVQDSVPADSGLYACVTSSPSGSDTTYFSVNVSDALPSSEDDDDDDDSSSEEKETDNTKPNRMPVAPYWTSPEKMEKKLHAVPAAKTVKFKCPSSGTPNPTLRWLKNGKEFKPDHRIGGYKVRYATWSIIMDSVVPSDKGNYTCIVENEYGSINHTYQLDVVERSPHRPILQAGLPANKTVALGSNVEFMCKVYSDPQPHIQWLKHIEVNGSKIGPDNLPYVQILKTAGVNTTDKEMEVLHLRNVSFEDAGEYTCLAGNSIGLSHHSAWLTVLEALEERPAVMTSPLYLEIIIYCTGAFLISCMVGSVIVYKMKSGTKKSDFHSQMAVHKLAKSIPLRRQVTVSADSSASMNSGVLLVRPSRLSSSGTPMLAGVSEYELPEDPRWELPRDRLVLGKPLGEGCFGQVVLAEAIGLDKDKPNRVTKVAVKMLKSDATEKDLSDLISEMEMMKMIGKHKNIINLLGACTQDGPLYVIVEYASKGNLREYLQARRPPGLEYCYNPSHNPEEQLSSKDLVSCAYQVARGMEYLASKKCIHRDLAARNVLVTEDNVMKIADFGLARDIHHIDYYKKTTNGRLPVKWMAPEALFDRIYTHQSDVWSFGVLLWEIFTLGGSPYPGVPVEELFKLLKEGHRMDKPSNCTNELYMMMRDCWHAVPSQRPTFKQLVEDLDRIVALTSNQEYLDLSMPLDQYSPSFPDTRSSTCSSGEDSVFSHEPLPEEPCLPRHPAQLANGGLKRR
UniProt P22607, 23-806 limits assumed: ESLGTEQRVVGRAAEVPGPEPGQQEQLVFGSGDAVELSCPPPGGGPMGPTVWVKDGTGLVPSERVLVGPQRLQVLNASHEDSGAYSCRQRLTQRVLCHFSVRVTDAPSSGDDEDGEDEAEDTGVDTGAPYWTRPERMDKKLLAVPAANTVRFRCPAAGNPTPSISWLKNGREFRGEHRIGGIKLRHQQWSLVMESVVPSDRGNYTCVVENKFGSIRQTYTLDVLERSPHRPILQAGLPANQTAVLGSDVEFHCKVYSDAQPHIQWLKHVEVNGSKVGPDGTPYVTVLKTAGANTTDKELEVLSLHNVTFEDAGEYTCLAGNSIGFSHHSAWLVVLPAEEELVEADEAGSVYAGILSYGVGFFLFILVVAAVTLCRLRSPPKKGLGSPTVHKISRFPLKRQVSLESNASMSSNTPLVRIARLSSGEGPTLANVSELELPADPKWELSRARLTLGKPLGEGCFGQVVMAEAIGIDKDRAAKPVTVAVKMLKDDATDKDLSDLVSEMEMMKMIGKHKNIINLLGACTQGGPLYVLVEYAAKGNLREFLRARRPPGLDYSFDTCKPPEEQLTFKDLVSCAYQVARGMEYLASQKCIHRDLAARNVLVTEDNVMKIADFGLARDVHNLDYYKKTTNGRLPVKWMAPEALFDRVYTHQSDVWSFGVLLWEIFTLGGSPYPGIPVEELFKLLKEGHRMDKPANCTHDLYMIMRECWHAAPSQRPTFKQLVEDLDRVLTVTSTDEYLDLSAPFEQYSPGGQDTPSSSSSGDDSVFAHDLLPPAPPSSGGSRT
UniProt P22607, 23-806 V555M limits assumed: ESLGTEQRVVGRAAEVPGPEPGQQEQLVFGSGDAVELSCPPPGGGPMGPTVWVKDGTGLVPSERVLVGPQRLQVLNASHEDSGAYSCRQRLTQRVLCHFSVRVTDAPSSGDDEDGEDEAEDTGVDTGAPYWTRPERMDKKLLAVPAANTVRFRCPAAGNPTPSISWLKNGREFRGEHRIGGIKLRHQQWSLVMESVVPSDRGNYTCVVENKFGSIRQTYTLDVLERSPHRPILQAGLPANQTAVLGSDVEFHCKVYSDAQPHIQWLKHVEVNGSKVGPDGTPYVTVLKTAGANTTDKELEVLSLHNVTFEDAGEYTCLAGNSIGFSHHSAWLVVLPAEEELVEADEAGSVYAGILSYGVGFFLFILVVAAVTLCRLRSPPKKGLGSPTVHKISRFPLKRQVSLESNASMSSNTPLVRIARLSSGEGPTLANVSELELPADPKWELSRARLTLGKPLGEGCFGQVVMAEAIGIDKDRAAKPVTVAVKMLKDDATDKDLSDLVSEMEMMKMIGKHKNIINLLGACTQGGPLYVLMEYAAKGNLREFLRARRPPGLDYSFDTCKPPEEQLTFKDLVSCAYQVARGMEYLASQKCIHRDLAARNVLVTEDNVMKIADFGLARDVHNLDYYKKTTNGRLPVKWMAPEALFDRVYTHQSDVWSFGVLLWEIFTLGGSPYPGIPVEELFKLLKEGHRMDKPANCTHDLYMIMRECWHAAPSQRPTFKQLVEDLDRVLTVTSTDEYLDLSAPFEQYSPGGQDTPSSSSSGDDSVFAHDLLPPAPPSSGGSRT
UniProt P22455, 22-802 limits assumed: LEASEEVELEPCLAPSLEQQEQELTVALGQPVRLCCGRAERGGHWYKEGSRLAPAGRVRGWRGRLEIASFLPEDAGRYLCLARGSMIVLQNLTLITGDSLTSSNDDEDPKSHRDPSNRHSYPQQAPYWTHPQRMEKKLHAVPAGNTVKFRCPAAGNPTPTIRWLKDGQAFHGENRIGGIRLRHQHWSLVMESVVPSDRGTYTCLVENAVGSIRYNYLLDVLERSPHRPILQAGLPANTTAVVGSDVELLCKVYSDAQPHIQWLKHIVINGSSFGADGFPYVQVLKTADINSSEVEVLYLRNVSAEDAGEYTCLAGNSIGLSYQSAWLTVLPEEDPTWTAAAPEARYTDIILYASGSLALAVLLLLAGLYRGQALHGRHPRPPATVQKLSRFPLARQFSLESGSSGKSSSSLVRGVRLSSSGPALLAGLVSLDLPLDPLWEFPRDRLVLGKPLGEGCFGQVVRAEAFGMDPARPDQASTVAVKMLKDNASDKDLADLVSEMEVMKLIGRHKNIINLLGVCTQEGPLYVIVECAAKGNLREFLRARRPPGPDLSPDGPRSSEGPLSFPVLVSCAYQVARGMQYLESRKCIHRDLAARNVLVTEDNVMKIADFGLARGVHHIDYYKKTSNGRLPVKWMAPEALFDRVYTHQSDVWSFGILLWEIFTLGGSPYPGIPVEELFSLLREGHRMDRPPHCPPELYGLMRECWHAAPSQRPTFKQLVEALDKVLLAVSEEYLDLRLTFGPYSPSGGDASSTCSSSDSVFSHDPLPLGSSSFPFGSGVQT
UniProt P21802, 22-821 limits assumed: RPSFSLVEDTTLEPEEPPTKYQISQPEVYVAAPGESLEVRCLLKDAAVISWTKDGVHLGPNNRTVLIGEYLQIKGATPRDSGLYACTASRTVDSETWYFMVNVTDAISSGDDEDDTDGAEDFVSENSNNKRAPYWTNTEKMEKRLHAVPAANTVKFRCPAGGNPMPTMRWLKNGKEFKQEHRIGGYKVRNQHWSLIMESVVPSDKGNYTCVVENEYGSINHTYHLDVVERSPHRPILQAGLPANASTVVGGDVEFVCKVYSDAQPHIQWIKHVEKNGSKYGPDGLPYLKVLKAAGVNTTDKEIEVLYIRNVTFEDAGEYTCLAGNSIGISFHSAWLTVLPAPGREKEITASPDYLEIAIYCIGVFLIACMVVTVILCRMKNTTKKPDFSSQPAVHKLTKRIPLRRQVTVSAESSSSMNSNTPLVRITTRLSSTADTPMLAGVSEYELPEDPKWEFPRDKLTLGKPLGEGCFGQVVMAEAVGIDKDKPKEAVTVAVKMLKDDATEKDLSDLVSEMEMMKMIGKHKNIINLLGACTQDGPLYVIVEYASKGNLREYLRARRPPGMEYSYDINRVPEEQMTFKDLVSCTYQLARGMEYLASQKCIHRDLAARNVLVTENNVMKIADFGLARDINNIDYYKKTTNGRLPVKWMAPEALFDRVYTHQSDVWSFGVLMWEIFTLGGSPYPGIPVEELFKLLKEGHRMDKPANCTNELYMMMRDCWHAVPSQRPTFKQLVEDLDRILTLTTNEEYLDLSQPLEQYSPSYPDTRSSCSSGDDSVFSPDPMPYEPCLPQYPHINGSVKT

Columns and labels:
[1] = tested on: KG-1 cell line (FGFR 1-fusion); assay: Cancer cell line cell viability assay (Cell Titer-Glo), 72 hr; conditions: read-out: KG-1 IC50 nM, KG-1 cell line (FGFR1-fusion)
Description: (§1) Experimental Purpose: To detect the change of intracellular ATP by Cell Titer-Glo® and to evaluate the inhibitory effect of the compounds on cancer cell lines by determining the in vitro IC50 value of the compounds.
(§2) Cell Titer-Glo® 2.0 Luminescent cell viability assay reagent was purchased from Promega (Madison, WI). KG-1, KATO-III, and MDA-MB-453 cell lines were purchased from American Type Culture Collection (Manassas, VA). RT112/84 cell line was purchased from Millipore-Sigma (St. Louis, MO). HuH7 cells were purchased from Seikisui Xenotech (Kansas City, KS). RT112/84 and MDA-MB-453 cells were cultured in RPMI1640 media supplemented with 10% fetal bovine serum. KG-1 and KATO-III cell lines were cultured in IMDM media supplemented with 20% FBS. HuH7 cells were cultured in IMDM media supplemented with 10% FBS. Cultures were maintained at 37° C. in a humidified atmosphere of 5% CO2 and 95% air.
(§3) Cell Viability Assay Procedure: Cells were plated in 96-well clear bottom/white plates (Corning #3903) at a range of densities depending on the optimal assay window (5,000-20,000 cells/well in […] of media), incubated overnight. The next day, test compound DMSO stock solutions were made at 10 mM and […] final concentration. Compounds were then added to cells in a 9-dose, 4-fold dilution series starting at 3 μM with an HP 300e Digital Dispenser (each dose was applied in triplicate). DMSO was backfilled to each well up to 301 nL total volume of test compound+DMSO, and a total of 301 nL DMSO was added to a control/no test compound well in triplicate. The cells in cell culture plates were incubated with the compounds at 37° C. and 5% CO2 for 72 hours-120 hours depending on the cell line. […] Luminescence was recorded by a Clariostar Plus Microplate Reader (BMG Labtech, Cary, NC). Cells were assessed as a percentage of DMSO only treated control cells. Curves were plotted and IC50 values were calculated using the GraphPad Prism 9 program based on a sigmoidal dose-response equation (log (inhibitor) vs. response—Variable slope, 4-parameter).

[2] = tested on: RT112/84 cell line (FGFR3-fusion); assay: as above; conditions: read-out: RT112/84 IC50 nM
Description: as §1, §2, §3

[3] = tested on: KATO-III cell line (FGFR2 amplification); assay: as above; conditions: read-out: Kato III IC50 nM
Description: as §1, §2, §3

FGFR1 = FGFR1 (Homo sapiens, UniProt P11362); assay: Kinase binding assay (kinase-tagged T7 phage, affinity beads, qPCR), Kd; conditions: read-out: FGFR1 (Kd nM)
Experimental: (§4) Kinase-tagged T7 phage strains were prepared in an E. coli host derived from the BL21 strain. E. coli were grown to log-phase and infected with T7 phage and incubated with shaking at 32° C. until lysis. The lysates were centrifuged and filtered to remove cell debris. Streptavidin-coated magnetic beads were treated with biotinylated small molecule ligands for 30 minutes at room temperature to generate affinity resins for kinase assays. The liganded beads were blocked with excess biotin and washed with blocking buffer SeaBlock (Pierce), 1% BSA, 0.05% Tween 20, 1 mM DTT to remove unbound ligand and to reduce non-specific binding. Binding reactions were assembled by combining kinases, liganded affinity beads, and test compounds in 1× binding buffer (20% SeaBlock, 0.17×PBS, 0.05% Tween 20, 6 mM DTT).
(§5) Test compounds were prepared as 111× stocks in 100% DMSO. Kds were determined using an 11-point 3-fold compound dilution series with three DMSO control points. All compounds for Kd measurements are distributed by acoustic transfer (non-contact dispensing) in 100% DMSO. The compounds were then diluted directly into the assays such that the final concentration of DMSO was 0.9%. All reactions performed in polypropylene 384-well plate. Each was a final volume of 0.02 ml. The assay plates were incubated at room temperature with shaking for 1 hour and the affinity beads were washed with wash buffer (lx PBS, 0.05% Tween 20). The beads were then re-suspended in elution buffer (lx PBS, 0.05% Tween 20, 0.5 M non-biotinylated affinity ligand) and incubated at room temperature with shaking for 30 minutes. The kinase concentration in the eluates was measured by qPCR.
(§6) Binding constants were calculated with a standard dose-response curve using the Hill equation: […]
(§7) The Hill Slope was set to −1. Curves were fitted using a non-linear least square fit with the Levenberg-Marquardt algorithm.

[4] = tested on: MDA-MB-453 cell line (FGFR4-Y367C); assay: Cancer cell line cell viability assay (Cell Titer-Glo), 120 hr; conditions: read-out: MDA-MB-453
Description: as §1
as §2, with “Cultures were maintained at 37° C. in a humidified atmosphere of 5% CO2 and 95% air.” left out
Cell Viability Assay Procedure: Cells were plated in 96-well clear bottom/white plates (Corning #3903) at a range of densities depending on the optimal assay window (5,000-20,000 cells/well in […] of media), incubated overnight. […] Luminescence was recorded by a Clariostar Plus Microplate Reader (BMG Labtech, Cary, NC). Cells were assessed as a percentage of DMSO only treated control cells. Curves were plotted and IC50 values were calculated using the GraphPad Prism 9 program based on a sigmoidal dose-response equation (log (inhibitor) vs. response—Variable slope, 4-parameter).

FGFR3 = FGFR3 (Homo sapiens, UniProt P22607); assay: Kinase binding assay (kinase-tagged T7 phage, affinity beads, qPCR), Kd; conditions: read-out: FGFR3 (Kd nM)
FGFR4 = FGFR4 (Homo sapiens, UniProt P22455); assay: as above; conditions: read-out: FGFR4 (Kd nM)
Experimental: as §4, §5, §6, §7

FGFR2 = FGFR2 (Homo sapiens, UniProt P21802); assay: as above; conditions: read-out: FGFR2 (Kd nM)
Experimental: as §4, §5, §6, §7

FGFR3 (V555M) = FGFR3 (V555M) (Homo sapiens, UniProt P22607, V555M); assay: as above; conditions: read-out: FGFR3 (V555M) (Kd nM); V555M mutant
[5] = kinase binding assay, 11-point 3-fold dilution series

IC50 [1]: 50 to 200 nM
IC50 [2]: 0.1 to 50 nM
IC50 [3]: 0.1 to 50 nM
Kd (FGFR1): 1 to 50 nM
IC50 [4]: 200 to 1000 nM
Kd (FGFR3): 1 to 50 nM
SMILES: C[C@@H](Oc1ccc2[nH]nc(-c3ccc(N4CC(N)(c5cnn(C)c5)C4)nn3)c2c1)c1c(Cl)cncc1Cl

Kd (FGFR1): 1 to 50 nM
Kd (FGFR3): 1 to 50 nM
SMILES: C[C@@H](Oc1ccc2[nH]nc(-c3ccc(N4CC(N)(Cc5ccn(C)n5)C4)nc3)c2c1)c1c(Cl)cncc1Cl

Kd (FGFR1; [5]): 1 to 50 nM
Kd (FGFR3; [5]): 1 to 50 nM
SMILES: C[C@@H](Oc1ccc2[nH]nc(-c3cnc(N4CC[C@@](N)(Cc5ccn(C)n5)C4)c(F)c3)c2c1)c1c(Cl)cncc1Cl

Kd (FGFR4): 1 to 50 nM
Kd (FGFR1): 50 to 300 nM
Kd (FGFR2): 50 to 300 nM
Kd (FGFR3): 1 to 50 nM
Kd (FGFR3 (V555M)): 1 to 50 nM
SMILES: C[C@@H](Oc1ccc2[nH]nc(-c3cnc(N4CC(C)(C(=O)NCCO)C4)c(C#N)c3)c2c1)c1c(Cl)cncc1Cl

Where two headings read alike, the source gives them in different places. Each block holds one compound with its values, some of them ahead of it.
